From the C3SDB collision cross section collection

Columns and labels:
[1] = [M+H]+; instrument: TW; calibrated with polyalanine and drug standards
[2] = [M]+; instrument: DT; stepped-field

COc1c2ccccc2nc2occc12 [DICTAMNINE]
collision cross section (N2) [1]: 135.2 Å²

CCC[N+](CCC)(CCC)CCC [TAA3]
collision cross section (N2) [2]: 144 Å²
